Source: article PMC3679298

Molecular target: HLA-C*03:04 tetramer refolded with the peptide …
Experiment: SPR

## soluble KIR2DL3*002 Fc fusion protein (sKIR2DL3*002) (from UniProt P43628 22-245)
  peak resonance units (RU): 4 RU
